Only some compounds are listed: those with a hit (about 16% of all), similar ones and a draw of the others.
TDP1 inh = TDP1 (human) enzyme inhibition; Q9NUW8; recombinant TDP1, AlphaScreen DNA substrate cleavage; Potency, µM (titrated, usually from 130 µM), without a hit: at the top dose activity change, negative = inhibition, most hits filed as inhibitors; 350,000 compounds, 0.28% hits; AID 485290; note: potency is the fitted concentration of half-maximal effect; % is set by controls: 0 for no effect and ±100 for the full control effect; nearly all actives have a fitted effect of over 40% in size
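Steps: enzyme plus compound, 15 min RT; add biotin/phosphotyrosine-FITC oligonucleotide (15 nM final), react 5 min; add donor/acceptor beads (10 ug/ml final), 10 min; read AlphaScreen. Tdp1 at 1 nM final.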
miR-21 reporter = miR-21 reporter, rising signal; HeLa miR-21 FLuc reporter, luciferase, 48 h; Potency, µM (titrated, usually from 38.3 µM), without a hit: top-dose reporter change, positive = more light; AID 2288; 340,000 tested, under 10 active; active = well fitted rising curve with a large enough effect; inconclusive = small, poorly fitted or top-dose-only effect; inactive = no such curve, though single readings can be large or run the other way;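 further: % of control where 0% means no effect; miR-21 action dims this reporter so a rising signal means less miR-21 action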
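Using DMEM plus 10% FBS, HeLa miR-21-FLuc cells are incubated with test compounds (final up to about 40uM) for 48 hours; firefly luciferase signal is then imaged following reagent-mediated lysis.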
DT40 TDP1 no CPT = qHTS for Inhibitors of human tyrosyl-DNA phosphodiesterase 1 (TDP1): qHTS in cells in absence of CPT. DT40 Tdp1-/- hTDP1 cells, no CPT, ATP luminescence, 48 h. Potency, µM (series often up to 46.2 µM), without a hit: at the top dose activity change, negative = growth inhibition, most hits filed as inhibitors. 420,000 compounds, 15% hits; note: potency is the fitted concentration of half-maximal effect; % is set by controls: 0 for no effect and ±100 for the full control effect; nearly all actives have a fitted effect of over 55% in size
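Readout: luminescence from CellTiter-Glo after 30 min in the dark at RT. Cells: DT40 Tdp1-/- with stable hTDP1, 400/well. Exposure: compounds alone, ≥48 hr, 37 °C.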
TDP1 cell CPT = DT40-hTDP1 cell growth loss with CPT | chicken DT40 Tdp1-/-;hTDP1 cells + 20 nM CPT, ATP luminescence, 48 h | Potency, µM (top dose mostly 46.2 µM), for inactives: at the top dose activity change, negative = growth inhibition, usual class: inhibitors | 420,000 compounds, 12% hits; note: potency is the fitted concentration of half-maximal effect; % is set by controls: 0 for no effect and ±100 for the full control effect; nearly all actives have a fitted effect of over 55% in size
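Chicken DT40 Tdp1-/- cells stably complemented with human TDP1 were seeded at 400 cells/well in medium containing 20 nM camptothecin, exposed to pin-transferred compounds, and grown at 37 °C for at least 48 hr. Viability was read as ATP luminescence.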
uPA generation = cell surface uPA generation inhibition. AID 540303. Potency, µM (doses to about 38.3 µM), inactives show at the top dose activity change, negative = inhibition, hits mostly inhibitors. cell surface uPA generation assay, qHTS. 330,000 compounds, 0.31% hits; active = well fitted inhibition curve with a large enough effect; inconclusive = small, poorly fitted or top-dose-only effect; inactive = no such curve, though single readings can be large or run the other way; tested in mouse RAW 264.7 cells; note: potency is the fitted concentration of half-maximal effect; % is set by controls: 0 for no effect and ±100 for the full control effect; nearly all actives have a fitted effect of over 55% in size
Numbers without * were called inactive; ? = inconclusive; nt = no result given. Unless noted, calls come from the whole dose curve; as a rule, active = well fitted curve in the direction sought with a large enough effect; inconclusive = small, poorly fitted or top-dose-only effect, or another doubt; inactive = no such curve, though single readings can be large; an effect the other way counts as inactive or inconclusive.

SMILES	TDP1 inh	miR-21 reporter	DT40 TDP1 no CPT	TDP1 cell CPT	uPA generation
Cc1ccc(S(=O)(=O)NC(CC(C)C)C(=O)NCC(c2ccco2)N2CCCCC2)cc1 (centres undefined)	-2%	nt	?	23µM*	-3%
COc1ccc(C(C)(O)c2nc(-c3ccccc3OC)cs2)cc1 (centres undefined)	nt	nt	13µM*	9.2µM*	nt
COc1ccc(-c2csc(C(C)(O)c3cccc(F)c3)n2)cc1 (centres undefined)	nt	nt	13µM*	18µM*	nt
COc1cccc(C(C)(O)c2nc(-c3cccc(C(=O)O)c3)cs2)c1 (centres undefined)	nt	nt	4%	-22%	nt
COc1ccc(C(C)(O)c2nc(-c3cccc(C(F)(F)F)c3)cs2)cc1 (centres undefined)	nt	nt	18µM*	26µM*	nt
COc1cccc(C(C)(O)c2nc(/C=C/c3ccccc3)cs2)c1 (centres undefined)	nt	nt	18µM*	?	nt
O=C(CSc1nc(=O)n2ccccc2n1)NCCc1ccccc1	1%	nt	-20%	10%	2%
COc1ccc([C@@H]2[C@@H]3C(=O)N(C(C)(C)C)C(=O)[C@@H]3[C@]3(Cc4ccccc4)C(=O)N(c4ccccc4)C(=O)N23)cc1	0%	nt	-12%	16%	6%
Cn1cnnc1SCC(=O)c1ccc(OC(F)F)cc1	-1%	-1%	0%	0%	nt
O=[N+]([O-])c1ccc(C2NS(=O)(=O)N=C3CCCCCN32)cc1 (centres undefined)	8%	2%	?	-15%	0%
CC(C)c1cccc(-c2csc(C(C)(O)c3cccc(F)c3)n2)c1 (centres undefined)	nt	nt	?	21µM*	nt
CC(O)(c1cccnc1)c1nc(-c2cccc(F)c2)cs1 (centres undefined)	nt	nt	-27%	?	nt
CC(O)(c1cccnc1)c1nc(-c2cccc(C(F)(F)F)c2)cs1 (centres undefined)	nt	nt	15µM*	18µM*	nt
CC(=O)N1c2ccc(S(=O)(=O)N3CCCC3)cc2CC1C(=O)NC(C)C (centres undefined)	5%	0%	1%	-3%	12%
CC(=O)N1c2ccc(S(=O)(=O)N3CCCC3)cc2CC1C(=O)NCc1ccc(N(C)C)cc1 (centres undefined)	5%	1%	0%	-27%	-2%
CCc1ccc(CNC(=O)C2Cc3cc(S(=O)(=O)N4CCCCCC4)ccc3N2C(C)=O)cc1 (centres undefined)	6%	0%	?	23µM*	nt
CC(=O)N1c2ccc(S(=O)(=O)N3CCCC3)cc2CC1C(=O)Nc1cc(C)cc(C)c1 (centres undefined)	3%	-2%	23µM*	?	-3%
COCCN(C(=O)COC(=O)Cc1cccc2ccccc12)c1c(N)n(Cc2ccccc2)c(=O)[nH]c1=O	1%	-1%	-17%	-3%	0%
Cc1ccc2nsnc2c1NC(=O)CCl	1%	11%	21µM*	?	?
Cc1ccc(NC(=O)c2ccc([N+](=O)[O-])o2)cc1C	7%	-1%	10µM*	26µM*	-13%

For convenience, 5 of the compounds above.
SMILES	TDP1 inh	miR-21 reporter	DT40 TDP1 no CPT	TDP1 cell CPT	uPA generation
CCc1ccc(CNC(=O)C2Cc3cc(S(=O)(=O)N4CCCCCC4)ccc3N2C(C)=O)cc1 (centres undefined)	6%	0%	?	23µM*	nt
CC(=O)N1c2ccc(S(=O)(=O)N3CCCC3)cc2CC1C(=O)Nc1cc(C)cc(C)c1 (centres undefined)	3%	-2%	23µM*	?	-3%
COCCN(C(=O)COC(=O)Cc1cccc2ccccc12)c1c(N)n(Cc2ccccc2)c(=O)[nH]c1=O	1%	-1%	-17%	-3%	0%
Cc1ccc2nsnc2c1NC(=O)CCl	1%	11%	21µM*	?	?
Cc1ccc(NC(=O)c2ccc([N+](=O)[O-])o2)cc1C	7%	-1%	10µM*	26µM*	-13%

(listing goes on)
SMILES	TDP1 inh	miR-21 reporter	DT40 TDP1 no CPT	TDP1 cell CPT	uPA generation
O=C(Nc1ccc2[nH]c(=O)[nH]c2c1)c1ccc([N+](=O)[O-])o1	-19%	nt	-19%	?	-38%
CCC(=O)Nc1c(C)ccc2nsnc12	5%	-3%	-11%	3%	-4%
O=C(Nc1cccc([N+](=O)[O-])c1)c1ccc([N+](=O)[O-])o1	nt	nt	3.7µM*	1.8µM*	nt
O=C(Nc1cccc(Cl)c1N1CCOCC1)c1ccc([N+](=O)[O-])o1	2%	6%	?	?	-5%
O=C(Nc1cccc(NC(=O)c2ccccc2Cl)c1)c1ccc([N+](=O)[O-])o1	0%	30%	5.8µM*	8.2µM*	-16%
COc1cc(C)c(CN2CCc3nnc(C(C)NC(=O)c4cc(F)ccc4F)n3CC2)cc1C (centres undefined)	nt	nt	-2%	0%	nt
Cc1ccc(C)c(OCCN2C(=O)NC3(CCc4ccccc4C3)C2=O)c1 (centres undefined)	2%	-6%	-29%	-26%	5%
O=C(COC(=O)CN1C(=O)C(=O)c2ccccc21)OCN1C(=O)c2ccccc2C1=O	1%	1%	?	?	-5%
Fc1ccccc1NC(=S)Nc1ccc(CN2CCOCC2)cc1	2%	-20%	0%	4%	2%
CC1=CCC2C(=O)N(c3ccc(C(=O)Nc4ccccc4Cl)cc3)C(=O)C2C1 (centres undefined)	nt	-12%	-19%	-12%	4%
Cc1ccc2nsnc2c1NC(=O)c1ccc([N+](=O)[O-])o1	8%	17%	23µM*	?	-1%
Cc1ccc2nsnc2c1NC(=O)c1ccc(-c2cc(Cl)ccc2Cl)o1	-3%	-1%	?	?	-10%
CC(C)(C)c1ccc(C(=O)N/N=C/c2ccccn2)cc1	nt	-24%	5.8µM*	9.2µM*	?
O=C(N/N=C/c1ccccn1)c1ccc(Br)cc1	3%	-21%	15µM*	21µM*	-8%
O=C(N/N=C/c1ccccn1)c1ccc(N/N=C/c2ccccn2)cc1	6%	-10%	1%	1%	-1%
O=C1CCCN1CCCN=c1c([N+](=O)[O-])nn(-c2ccc(Cl)cc2)n1O	3%	-14%	6.5µM*	3.3µM*	-16%
COc1ccc(-n2nc([N+](=O)[O-])c(=NCCc3cccc(C)c3)n2O)cc1	14%	-11%	?	?	-3%
COc1ccc(-n2nc([N+](=O)[O-])c(=NCCCN3CCCC3=O)n2O)cc1	3%	-25%	?	?	11µM*
CCCn1ccc2c(OCC(=O)NCc3ccc(C)cc3)cccc2c1=O	8%	-3%	?	-20%	nt
O=C(COc1ccccc1)NCCSCc1ccccc1Cl	6%	-51%	-4%	2%	4%
Cn1ccc2c(OCC(=O)NCc3ccccc3Cl)cccc2c1=O	5%	-2%	18µM*	?	nt
COc1ccc(Cl)cc1NC(=O)COc1cccc2c(=O)n(C)ccc12	-8%	-10%	?	-2%	nt
CCCCc1ccc(NC(=O)COc2cccc3c(=O)n(C)ccc23)cc1	0%	21%	18µM*	13µM*	nt
COc1ccccc1OCC(=O)NCCSCc1ccccc1Cl	5%	-28%	18µM*	?	3%
CCOc1ccc(C(=O)C2CCN(C(=O)c3ccc([N+](=O)[O-])cc3)CC2)cc1	nt	23%	21µM*	?	-6%
CCOC(=O)N1CCN(C(=O)c2ccc(Oc3ccc([N+](=O)[O-])cc3)cc2)CC1	3%	5%	23µM*	16µM*	-10%

Assay outcomes as filed in PubChem BioAssay.
